Screening results as filed in PubChem BioAssay.
The full list was thinned out, with hits kept by preference.
GIV-Gai inh = inhibitors of GIV GBA-motif binding to rat Galpha-i3; P08753; Galpha-i3/FITC-GIV peptide fluorescence polarization, 90 min; stronger effect = lower value; scaled: aluminum fluoride 0%, vehicle 100%; percent of control (FP), % (test concentration not listed); 210,000 tested, 0.42% active; AID 1224905;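 active = replicate mean at 85% of control or lower, very high polarization wells dropped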;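 note: wells of about 15 µL received 100 nL stock; the first replicate is given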
HCMV NEC inh = disrupts HCMV UL50-UL53 complex binding; HTRF UL50-UL53 interaction, normalized percent inhibition; inhibition, % (test concentration not listed); 190,000 tested, 0.15% active; AID 1918969; in the data active = inhibition above about 27%, passing the limit was not always enough
GIV-Gai FP conf = GIV-Galpha-i3 inhibition, FP confirmation; shares compounds with GIV-Gai inh; FITC-GIV peptide binding to Galphai3, fluorescence polarization; stronger effect = lower value; fluorescence polarization, mP at 100 µM; 580 tested, 38% active; AID 1259350;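 active = inhibition score of 15 or more, meaning 100 minus mean polarization as percent of control over three replicates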
GIV Gai AS conf = confirmation of inhibitors of GIV binding to human Galpha-i3; shares compounds with GIV-Gai inh; AlphaScreen Galphai3-GIV binding, purified proteins, 90 min; stronger effect = lower value; AlphaScreen counts at 100 µM; 580 tested, 39% active;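 active = inhibition score at or above a set limit, where the score is 100 minus the three-replicate mean percent of control signal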
Numbers without * were called inactive; nt = not tested or not shown.

The first 2 compounds, to show the layout:
molecule,GIV-Gai inh,HCMV NEC inh,GIV-Gai FP conf,GIV Gai AS conf
COC(=O)c1sc2nc(C)cc(C(F)(F)F)c2c1N,nt,-13,nt,nt
COc1ccc(C(=O)c2sc3nc(C)cc(C(F)(F)F)c3c2N)cc1OC,62*,nt,69,55081

All compounds of this part, previewed entries included:
molecule,GIV-Gai inh,HCMV NEC inh,GIV-Gai FP conf,GIV Gai AS conf
COC(=O)c1sc2nc(C)cc(C(F)(F)F)c2c1N,nt,-13,nt,nt
COc1ccc(C(=O)c2sc3nc(C)cc(C(F)(F)F)c3c2N)cc1OC,62*,nt,69,55081
CCN(CC)c1ccc(-c2nc3cc(NC(=O)c4ccc(OC)c(OC)c4)ccc3o2)cc1,99,-5,nt,nt
CCOc1cccc(=O)c2c(C)oc(C)c12,92,-57,nt,nt
CCOc1cccc(=[O+]CC)c2c(C)oc(C)c12,68*,nt,44*,2733*
CC(C)c1cc(-c2nnc3sc(-c4ccncc4)nn23)n[nH]1,85*,-23,63,12549*
COc1ccccc1-c1nn2c(-c3cc(C(C)C)[nH]n3)nnc2s1,102,0,nt,nt
Cc1ccc(NC(=O)N2CCN(c3cc(=O)n4nc(-c5ccccc5C)sc4n3)CC2)cc1F,84*,-11,80,26514
Cc1ccccc1-c1nn2c(=O)cc(N3CCN(C(=O)Nc4ccc(Cl)cc4)CC3)nc2s1,101,12,nt,nt
Cc1scc(CN2CCC3(CC2)OCCO3)c1C,98,nt,nt,nt
CC(=O)n1c(/C=C2/N=C(c3cccs3)OC2=O)cc2ccccc21,95,-31,77,29162
COc1ccc(C2=N/C(=C/c3cc4ccccc4n3C(C)=O)C(=O)O2)cc1Br,113,nt,nt,nt
O=c1c2cccc3cccc(c32)c2nc3ccc4ccccc4c3n12,112,nt,nt,nt
Nc1nnn2c(=O)c3cccc4cccc(c43)c12,88,-108,79,19934*
Cc1cc2cc(CNC(=O)C(C)(C)Oc3ccc(Cl)cc3)ccc2n1C,100,nt,nt,nt
Cc1cccc(Cl)c1OCCN1CCN(C)CC1,nt,-8,nt,nt
COc1cc(/C=C2\C(=O)N(c3ccc(Cl)c(C(=O)O)c3)N=C2C)ccc1OCc1ccccc1,109,26,nt,nt
COc1cc(/C=C2\C(=O)N(c3ccc(S(N)(=O)=O)cc3)N=C2C)cc(Br)c1OCc1ccccc1,66*,46*,59,27596*
Cc1ccc(NC(=O)N2CCCC2c2nnc(C(=O)Nc3cccc(F)c3)s2)cc1Cl (stereo not drawn),105,-28,nt,nt
O=C(O)c1cnc(N2CCOCC2)c(NS(=O)(=O)c2ccccc2)c1,49*,-29,36*,30970
O=C(O)c1cnc(N2CCC(Cc3ccccc3)CC2)c(NS(=O)(=O)c2ccccc2)c1,99,-23,nt,nt

Individual results from the list.
Entry for COc1cc(/C=C2\C(=O)N(c3ccc(Cl)c(C(=O)O)c3)N=C2C)ccc1OCc1ccccc1 under GIV-Gai inh: 109
Entry for O=C(O)c1cnc(N2CCOCC2)c(NS(=O)(=O)c2ccccc2)c1 under GIV Gai AS conf: 30970
